What was measured:
[1] = target: Nitric oxide synthase, inducible (Rattus norvegicus) (UniProt Q06518); assay: Inhibition of iNOS in LPS-stimulated Wistar rat lung assessed as inhibition of [3H]L-arginine to [3H]L-citrulline conversion at 1 mM by liquid scintillation counting
Procedure, shortened: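 Lungs from male Wistar rats (220–250 g) taken 6 h after i.v. LPS (10 mg/kg in saline), homogenized in Tris buffer pH 7.6 with protease inhibitors, and spun at 2500g. The supernatant was incubated 30 min at 37 °C with 10 µM L-arginine plus 40 nM L-³H-arginine, cofactors, 0.75 mM NADPH (final) and 10 mM EDTA. ³H-citrulline was isolated on Dowex-50W; compounds at 1 mM.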

Protein sequences, listed by entry. Tags and fused reporters are not part of them.
UniProt Q06518, whole entry, looked up: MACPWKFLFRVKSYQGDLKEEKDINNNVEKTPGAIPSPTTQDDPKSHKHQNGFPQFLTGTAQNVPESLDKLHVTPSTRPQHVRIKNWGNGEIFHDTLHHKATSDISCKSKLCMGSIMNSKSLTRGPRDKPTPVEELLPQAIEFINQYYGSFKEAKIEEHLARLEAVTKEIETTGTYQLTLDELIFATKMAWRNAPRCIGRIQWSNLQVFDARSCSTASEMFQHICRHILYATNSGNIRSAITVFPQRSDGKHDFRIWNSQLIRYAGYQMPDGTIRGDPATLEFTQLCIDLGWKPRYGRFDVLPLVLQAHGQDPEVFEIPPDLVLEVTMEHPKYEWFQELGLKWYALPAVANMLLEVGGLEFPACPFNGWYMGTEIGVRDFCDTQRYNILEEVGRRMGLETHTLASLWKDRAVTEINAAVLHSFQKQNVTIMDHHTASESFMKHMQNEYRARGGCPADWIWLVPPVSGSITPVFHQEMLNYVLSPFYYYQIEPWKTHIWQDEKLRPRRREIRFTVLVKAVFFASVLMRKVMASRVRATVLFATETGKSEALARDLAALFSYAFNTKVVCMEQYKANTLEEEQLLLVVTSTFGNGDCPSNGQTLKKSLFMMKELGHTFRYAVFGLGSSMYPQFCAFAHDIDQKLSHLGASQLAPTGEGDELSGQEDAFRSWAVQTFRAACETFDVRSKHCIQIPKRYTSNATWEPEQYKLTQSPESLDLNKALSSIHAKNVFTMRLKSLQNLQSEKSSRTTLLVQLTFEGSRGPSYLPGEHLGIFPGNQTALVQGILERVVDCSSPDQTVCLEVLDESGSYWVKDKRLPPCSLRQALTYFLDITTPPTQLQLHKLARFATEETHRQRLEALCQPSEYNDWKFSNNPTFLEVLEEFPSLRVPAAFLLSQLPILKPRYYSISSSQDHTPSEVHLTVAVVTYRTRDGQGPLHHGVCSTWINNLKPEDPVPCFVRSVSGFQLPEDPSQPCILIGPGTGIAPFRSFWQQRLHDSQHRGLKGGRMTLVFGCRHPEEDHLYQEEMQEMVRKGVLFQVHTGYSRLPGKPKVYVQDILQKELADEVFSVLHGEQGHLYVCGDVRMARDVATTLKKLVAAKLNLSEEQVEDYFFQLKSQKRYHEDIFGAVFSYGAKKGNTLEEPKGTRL
UniProt P29476, whole entry, looked up: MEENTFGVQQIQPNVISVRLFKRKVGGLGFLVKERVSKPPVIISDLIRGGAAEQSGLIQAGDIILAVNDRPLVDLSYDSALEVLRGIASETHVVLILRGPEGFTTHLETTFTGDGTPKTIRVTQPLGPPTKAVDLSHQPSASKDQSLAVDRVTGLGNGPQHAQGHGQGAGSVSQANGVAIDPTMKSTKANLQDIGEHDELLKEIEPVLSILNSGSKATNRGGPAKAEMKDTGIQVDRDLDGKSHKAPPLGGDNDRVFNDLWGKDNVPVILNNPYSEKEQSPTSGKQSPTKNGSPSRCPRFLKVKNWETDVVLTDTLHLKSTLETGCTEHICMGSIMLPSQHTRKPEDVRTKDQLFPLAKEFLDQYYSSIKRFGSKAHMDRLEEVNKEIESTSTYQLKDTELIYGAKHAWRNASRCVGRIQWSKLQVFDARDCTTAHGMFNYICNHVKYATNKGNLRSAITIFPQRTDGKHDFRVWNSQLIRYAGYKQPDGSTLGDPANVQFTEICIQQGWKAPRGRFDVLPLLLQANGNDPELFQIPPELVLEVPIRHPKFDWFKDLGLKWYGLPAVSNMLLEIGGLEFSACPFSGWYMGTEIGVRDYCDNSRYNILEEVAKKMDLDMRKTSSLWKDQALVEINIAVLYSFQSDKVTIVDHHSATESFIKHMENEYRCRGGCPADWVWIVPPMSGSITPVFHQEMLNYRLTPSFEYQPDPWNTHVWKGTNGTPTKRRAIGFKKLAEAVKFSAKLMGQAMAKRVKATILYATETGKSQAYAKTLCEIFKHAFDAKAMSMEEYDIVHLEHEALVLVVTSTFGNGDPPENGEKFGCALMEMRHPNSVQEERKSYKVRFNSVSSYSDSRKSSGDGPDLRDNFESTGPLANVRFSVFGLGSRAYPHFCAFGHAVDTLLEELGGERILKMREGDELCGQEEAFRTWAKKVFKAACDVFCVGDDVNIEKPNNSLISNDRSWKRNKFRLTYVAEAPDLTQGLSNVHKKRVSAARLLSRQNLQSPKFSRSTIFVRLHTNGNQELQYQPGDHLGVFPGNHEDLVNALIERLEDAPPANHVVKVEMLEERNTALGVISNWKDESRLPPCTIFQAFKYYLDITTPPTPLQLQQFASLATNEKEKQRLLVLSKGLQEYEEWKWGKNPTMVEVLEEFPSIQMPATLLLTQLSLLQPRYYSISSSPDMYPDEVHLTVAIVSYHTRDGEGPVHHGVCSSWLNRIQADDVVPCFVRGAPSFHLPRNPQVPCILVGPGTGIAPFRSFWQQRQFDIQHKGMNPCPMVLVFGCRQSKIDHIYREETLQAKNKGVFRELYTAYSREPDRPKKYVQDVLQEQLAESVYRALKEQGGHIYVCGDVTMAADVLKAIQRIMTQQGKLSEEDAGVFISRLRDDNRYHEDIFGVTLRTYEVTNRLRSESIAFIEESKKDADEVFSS

Rattus norvegicus = species on record: Rattus norvegicus; assay: Selectivity ratio of inhibition of iNOS in Wistar rat lung to inhibition of nNOS in Wistar rat striata
[2] = target: Nitric oxide synthase 1 (Rattus norvegicus) (UniProt P29476); assay: Inhibition of nNOS in LPS-stimulated Wistar rat striata assessed as inhibition of [3H]L-arginine to [3H]L-citrulline conversion at 1 mM by liquid scintillation counting
Procedure, shortened: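 Striata from untreated male Wistar rats (200–250 g) were sonicated in Tris pH 7.6 buffer with protease inhibitors and spun at 1000g for 5 min. The supernatant was incubated 30 min at 37 °C with 10 µM L-arginine, 40 nM L-³H-arginine, 0.1 mM CaCl₂, H₄-biopterin, FAD and 0.75 mM NADPH (final). Blanks lacked NADPH. ³H-citrulline was separated on Dowex-50W; compounds at 1 mM.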

Which inhibition [1] does the source give for `O=[N+]([O-])c1n[nH]c2c([N+](=O)[O-])cccc12` here?
The inhibition was 89.3%.

What about the Ratio (Rattus norvegicus) of the same compound?
Its Ratio is 40.

And the inhibition [2]?
Its inhibition is 2.1%.

Reference: ChEMBL document CHEMBL1759883, “Synthesis and biological evaluation of indazole derivatives” (Eur J Med Chem, 2011)
